Laboratory results as given in patent publication US20260207602A1, “EGFR INHIBITORS” (Blueprint Medicines Corporation, priority 2022, published 2026).

Amino acid sequences for entries named in this document (tags omitted). A change or cut given only in a name is not applied to a line headed by its entry. Residues count along the entry.
UniProt P00533, 25-1210 L858R limits assumed: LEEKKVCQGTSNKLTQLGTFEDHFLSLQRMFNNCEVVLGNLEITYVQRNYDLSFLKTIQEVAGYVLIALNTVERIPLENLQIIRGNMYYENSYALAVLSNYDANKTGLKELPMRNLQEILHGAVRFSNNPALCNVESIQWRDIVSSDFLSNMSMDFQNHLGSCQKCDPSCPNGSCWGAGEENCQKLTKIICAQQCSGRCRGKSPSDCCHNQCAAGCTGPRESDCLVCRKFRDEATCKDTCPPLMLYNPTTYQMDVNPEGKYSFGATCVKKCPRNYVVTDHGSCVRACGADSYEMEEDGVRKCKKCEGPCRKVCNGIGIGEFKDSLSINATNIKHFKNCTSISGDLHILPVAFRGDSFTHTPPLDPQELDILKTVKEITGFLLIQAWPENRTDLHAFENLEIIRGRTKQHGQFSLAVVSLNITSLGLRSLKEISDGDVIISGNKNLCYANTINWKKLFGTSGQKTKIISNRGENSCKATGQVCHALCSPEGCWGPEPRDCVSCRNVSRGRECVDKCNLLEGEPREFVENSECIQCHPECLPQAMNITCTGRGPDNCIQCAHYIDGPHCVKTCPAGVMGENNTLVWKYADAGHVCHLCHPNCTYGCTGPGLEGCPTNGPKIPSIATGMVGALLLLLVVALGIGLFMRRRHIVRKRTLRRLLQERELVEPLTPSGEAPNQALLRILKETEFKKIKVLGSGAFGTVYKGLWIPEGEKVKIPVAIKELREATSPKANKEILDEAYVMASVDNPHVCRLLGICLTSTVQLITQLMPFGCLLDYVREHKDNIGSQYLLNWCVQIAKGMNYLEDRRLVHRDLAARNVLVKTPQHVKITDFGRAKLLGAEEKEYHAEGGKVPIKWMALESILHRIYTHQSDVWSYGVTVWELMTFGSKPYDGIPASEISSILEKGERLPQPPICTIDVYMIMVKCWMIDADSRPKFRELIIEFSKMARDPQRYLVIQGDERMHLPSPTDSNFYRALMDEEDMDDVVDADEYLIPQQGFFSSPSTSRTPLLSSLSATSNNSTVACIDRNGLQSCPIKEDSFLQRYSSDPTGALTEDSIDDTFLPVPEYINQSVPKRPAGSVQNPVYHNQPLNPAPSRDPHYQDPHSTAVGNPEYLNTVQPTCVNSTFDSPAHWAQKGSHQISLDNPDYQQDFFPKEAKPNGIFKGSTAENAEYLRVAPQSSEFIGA

How the values were obtained:
[1] = biological target: EGFR L858R (Homo sapiens, UniProt P00533, L858R); assay: Biochemical EGFR inhibition assay (Caliper mobility shift), EGFR L858R; conditions: read-out: Enz EGFR L858R IC50, EGFR L858R enzyme
[2] = biological target: intracellular phosphorylation of EGFR (Tyr1068) in PC-9 cells (Homo sapiens, UniProt P00533, DEL746-750); assay: PC-9 pEGFR AlphaLISA assay; conditions: read-out: Phos EGFR PC9 IC50, 4 hours incubation
[3] = biological target: EGFR (d746-750) (Homo sapiens, UniProt P00533, DEL746-750); assay: Biochemical EGFR inhibition assay (Caliper mobility shift), EGFR (d746-750); conditions: read-out: Enz EGFR Exon 19-del IC50, EGFR Exon 19-del enzyme

Measured: IC50

CN1CCCC(Oc2cc(-c3cnn(C)c3)cc3ncnc(Nc4ccc5ncsc5c4)c23)C1 (single isomer, unassigned)
< 10 nM: all assays above
